Assay results reported in PubChem BioAssay AID720543 (The Scripps Research Institute Molecular Screening Center, 2013).
The list shows a part of the results, in another mix than the full data. Active and inactive are the calls of the source.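 The calls were made as follows: active = inhibition exceeding the mean over every tested compound plus 3 SD (cut at about 30% in these data); inactive = the rest.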

Sequences of proteins named here, by UniProt entry; tags and fusion partners are left off.
UniProt Q8VD66, whole entry: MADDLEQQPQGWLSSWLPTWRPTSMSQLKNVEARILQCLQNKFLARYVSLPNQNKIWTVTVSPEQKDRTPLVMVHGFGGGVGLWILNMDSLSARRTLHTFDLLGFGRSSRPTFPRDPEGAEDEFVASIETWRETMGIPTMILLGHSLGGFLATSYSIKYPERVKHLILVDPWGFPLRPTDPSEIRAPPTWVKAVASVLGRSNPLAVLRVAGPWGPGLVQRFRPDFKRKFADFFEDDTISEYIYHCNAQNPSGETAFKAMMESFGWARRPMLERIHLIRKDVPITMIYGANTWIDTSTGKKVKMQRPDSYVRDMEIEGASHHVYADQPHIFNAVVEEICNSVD

Biological target: (Lyso)-N-acylphosphatidylethanolamine lipase (Mus musculus) (UniProt Q8VD66)
Assay: mouse ABHD4 hydrolase activity blockers – biochemical, fluorescence polarization, primary screen (AID 720543);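 also: 0% = plate median of compound wells and 100% = S159A mutant with DMSO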
Conditions: purified mABHD4, FP-Rh probe fluorescence polarization; at 8.92 µM; hits give high values
Outline: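 Assay system: wild-type mouse ABHD4 protein; compound: single nominal dose of 8.92 µM, 0.89% DMSO final; schedule: 45 min + 60 min at 25 °C; measured by: FP readout, ex 525 nm / em 598 nm; evaluation: % inhibition of FP-Rh probe binding versus controls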

Row | SMILES | inhibition
1 | CCC(=O)N(c1ccccc1)C1(COC)CCN(CCc2cccs2)CC1 | inactive: -0.77%
2 | CCC(=O)N(c1ccccc1)C1(COC)CCN(CCn2nnn(CC)c2=O)CC1 | inactive: 7.99%
